Measured values published in patent US8791050B2, “Herbicidal compositions” (priority 1998, dated 2014).

System: rice
Assay: Selectivity: damage to rice, field trial
Type: in vivo
Conditions: Table 3 field trial, post-emergence 2-4-leaf stage, scoring 28 days after application
Method: The damage and development of all above-ground parts of the plants were recorded. […] The scores of in each case 4 plots were averaged.
Crop plants were grown outdoors on plots under natural outdoor conditions, and seeds or rhizome pieces of typical harmful plants were laid out or the natural weed growth was utilized.

## oxadiargyl [(B4.9)]
25 g of AS/ha
  Damage (in %) to rice: 22%
50 g of AS/ha
  Damage (in %) to rice: 23%
100 g of AS/ha
  Damage (in %) to rice: 22%
